One experiment concerns the target GST-FKBP12 (36V) (Homo sapiens (Human), UniProt P62942, F36V). In words: FKBP12 Ligand-Displacement AlphaScreen Assay (36V). The class given is binding.
Experiment [1] deals with fusion of mutant FKBP12 to nanoluciferase (Homo sapiens (Human), UniProt P62942+Q96SW2, F36V). In words: FKBP Dual Luciferase Assay (mutant FKBP12, 36V).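 For all read-outs here: cells exposed to rising degrader concentrations, FKBP12 fusion level read as NLuc/FLuc signal ratio, lower ratio means more degradation.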 It counts as cell-based. The following applies: FKBP 36V, 4 hours; for Dmax: read-out: Max Degradation (dual luciferase, %) FKBP 36V.
The target in experiment [2] is T1, FKBP12 (Homo sapiens (Human), UniProt P62942). The following applies: MV4-11, 18 h.
Experiment [3] has as its target fusion of FKBP12 to nanoluciferase (Homo sapiens (Human), UniProt P62942+Q96SW2). In words: FKBP Dual Luciferase Assay (FKBP12). The class given is cell-based. As to conditions: 4 hours; for Dmax: read-out: Max Degradation (dual luciferase, %) FKBP.
The target in another experiment is CRBN-DDB1/BRD4 (Homo sapiens (Human), UniProt O60885+Q96SW2). In words: CRBN-DDB1/BRD4 Dimerization Assay.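 Note: AlphaScreen proximity signal between GST-tagged BRD4 and CRBN-DDB1 with glutathione donor and nickel chelate acceptor beads, read after 1 hr compound incubation at room temperature, values from Gaussian curve fit.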
The target of experiment [4] is BRD4 adjoined to nanoluciferase (Nluc) (Homo sapiens (Human), UniProt O60885+Q96SW2). The experiment in a line: BRD4 Dual Luciferase Assay.
Experiment [5] addresses T1, FKBP12. As to conditions: 18 h.
[6] abbreviates: Gaussian fit of dimerization signal.

Protein sequences, listed by entry. Tags and fused reporters are not part of them. Lines headed by an entry give the natural chain unless they say otherwise; changes in a name come on top.
UniProt P62942, whole entry: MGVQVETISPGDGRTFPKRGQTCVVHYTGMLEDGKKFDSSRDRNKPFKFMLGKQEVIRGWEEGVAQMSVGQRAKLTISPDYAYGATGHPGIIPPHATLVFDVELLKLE

Where two headings read alike, the source gives them in different places.

In the case of `CCC(C)(C)C(=O)C(=O)N1CCCC[C@H]1C(=O)O[C@H](CCc1ccc(OC)c(OC)c1)c1cccc(NC(=O)CCC(=O)NCCCOCCOCCOCCCNC(=O)COc2cccc3c2C(=O)N(C2CCC(=O)NC2=O)C3=O)c1` (some centres unmarked), the half-maximal inhibitory concentration (IC50) on GST-FKBP12 (36V) stood at 0.174 µM. Besides, the DC50 in experiment [1] came to 19 nM; in experiment [3], 26 nM. The Dmax in experiment [1] is 43%. Moreover, the “reduction of FKBP12” value on FKBP12 [2] (0.01 μM) is 50%; at FKBP12 [2] (0.1 μM) it was “over 80%”.

For `CC[C@H](C(=O)N1CCCC[C@H]1C(=O)O[C@H](CCc1ccc(OC)c(OC)c1)c1cccc(OCC(=O)NCCCCNC(=O)COc2cccc3c2C(=O)N(C2CCC(=O)NC2=O)C3=O)c1)c1cc(OC)c(OC)c(OC)c1` (some centres unmarked) [c1FKBP*-6], the Dmax in experiment [1] is 72%; in experiment [3] it was under 5%.

Take `CC[C@H](C(=O)N1CCCC[C@H]1C(=O)O[C@H](CCc1ccc(OC)c(OC)c1)c1cccc(OCC(=O)NCCCOCCOCCOCCCNC(=O)COc2cccc3c2C(=O)N(C2CCC(=O)NC2=O)C3=O)c1)c1cc(OC)c(OC)c(OC)c1` (some centres unmarked) [c1FKBP*-7]: the Dmax is 75% in experiment [1] and under 5% in experiment [3].

For the molecule `CC[C@H](C(=O)N1CCCC[C@H]1C(=O)O[C@H](CCc1ccc(OC)c(OC)c1)c1cccc(OCC(=O)NCCCCCCCCNC(=O)COc2cccc3c2C(=O)N(C2CCC(=O)NC2=O)C3=O)c1)c1cc(OC)c(OC)c(OC)c1` (some centres unmarked) [c1FKBP*-9], the Dmax in experiment [1] was 65%; in experiment [3], under 5%.

Regarding `COC(=O)C[C@@H]1N=C(c2ccc(Cl)cc2)c2c(sc(C(=O)NCCCCNC(=O)COc3cccc4c3C(=O)N(C3CCC(=O)NC3=O)C4=O)c2C)-n2c(C)nnc21` (some centres unmarked) [dBET22], at CRBN-DDB1/BRD4 (setting [6]), the “Dimer Amplitude” value came out at 26153 and the “Dimer Mean” value is −7.636. The “Dimer SD” value at CRBN-DDB1/BRD4 (Gaussian fit parameter of dimerization signal) amounted to 0.9644. In experiment [4], the “Conc@Emax” value was 50 µM.

Take `Cc1sc2c(c1C)C(c1ccc(Cl)cc1)=N[C@@H](CC(=O)NCCCCNC(=O)CNc1cccc3c1CN(C1CCC(=O)NC1=O)C3=O)c1nnc(C)n1-2` (some centres unmarked) [dBET35]: the “pDC50 (dual luc)” value in experiment [4] turned out to be 5.576. Also, the DC50 in experiment [4] (read-out: BRD4 DC50 (nM) Dual Luciferase) is 2660 nM.

On to `CCC(C)(C)C(=O)C(=O)N1CCCC[C@H]1C(=O)O[C@H](CCc1ccc(OC)c(OC)c1)c1cccc(NC(=O)CCC(=O)NCCCCNC(=O)COc2cccc3c2C(=O)N(C2CCC(=O)NC2=O)C3=O)c1` (some centres unmarked) [dFKBP-1], for which the Dmax in experiment [1] was 35%. The “reduction of FKBP12” value at FKBP12 [2] (0.01 μM) is 50%; on FKBP12 [2] (0.1 μM), “over 80%”. Moreover, the “FKBP12 degradation in 293FT-CRBN−/− cells” value at FKBP12 [5] (293FT-CRBN−/−) was “unaffected”. Besides, the “FKBP12 degradation in 293FT-WT cells” value on FKBP12 [5] (293FT-WT) was “potent, dose-dependent degradation of FKBP12”.

Values taken from patent US11059801B2.
